From PubChem BioAssay AID588473 (Sanford-Burnham Center for Chemical Genomics, 2011)
The list shows a part of the results, in another mix than the full data. The source made the active and inactive calls.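 Rule for the calls: active = activation of at least 50%, plus an integration ratio under a set limit after plate pattern correction; inactive = the rest.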

test system: CRF-binding protein / CRF receptor 2 complex (human); test: activators of CRF-R2 with CRF-BP – cell-based, HEK293, calcium dye fluorescence, uHTS, primary screen (AID 588473); conditions: calcium dye fluorescence (FLIPR), at 13.2 µM, hits give high values, percent of saturating CRF peptide response;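 note: plate controls were neutral control wells without compound for no effect and CRF at EC100 for full effect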

Structure (SMILES)	activation
CCC(=O)N(c1ccccc1)C1(COC)CCN(CCc2cccs2)CC1	inactive: -1.11%
CCC(=O)N(c1ccccc1)C1(COC)CCN(CCn2nnn(CC)c2=O)CC1	inactive: -0.06%
